Target: D(2) dopamine receptor (Rattus norvegicus, UniProt P61169)
Assay: Binding affinity against Dopamine receptor D2 from rat brain corpus striatum membrane

By UniProt entry, the sequences of proteins in these tests, tags left out.
UniProt P61169, whole entry: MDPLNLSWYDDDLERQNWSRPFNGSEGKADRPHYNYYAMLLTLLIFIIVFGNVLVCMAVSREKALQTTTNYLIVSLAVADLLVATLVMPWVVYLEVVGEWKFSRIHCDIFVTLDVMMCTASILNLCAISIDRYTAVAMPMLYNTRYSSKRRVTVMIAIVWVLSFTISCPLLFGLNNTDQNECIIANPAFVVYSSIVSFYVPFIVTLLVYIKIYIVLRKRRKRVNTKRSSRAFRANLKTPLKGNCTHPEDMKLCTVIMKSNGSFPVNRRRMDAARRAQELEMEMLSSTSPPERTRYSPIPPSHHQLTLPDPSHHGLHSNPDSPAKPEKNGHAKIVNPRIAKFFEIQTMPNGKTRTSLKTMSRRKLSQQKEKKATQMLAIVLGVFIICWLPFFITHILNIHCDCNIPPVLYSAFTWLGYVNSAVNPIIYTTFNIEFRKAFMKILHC

Structure (SMILES): CN1CCc2cccc3c2[C@H]1Cc1ccc(O)c(O)c1-3 [APOMORPHINE]
- IC50: 0.0667 µM

Reference: ChEMBL document CHEMBL1125019 (J Med Chem, 1990)
